Values quoted from earlier work as cited in paper PMC4791210 (International immunopharmacology, 2015).

Target: FPR1 (Homo sapiens) (UniProt P21462)
Test: radioligand binding
Details: cited from earlier work

Substance: CHIPS (from UniProt Q2FFF7)
- Kd: 35 nM
